These results are taken from patent US20140228384A1, “ASSAYS AND BIOMARKERS FOR LRRK2” (Genentech, Inc., priority 2011, published 2014).

Protein sequences, listed by entry. Tags and fused reporters are not part of them.
UniProt Q5S007, whole entry R1441G/Y1699C/G2019S: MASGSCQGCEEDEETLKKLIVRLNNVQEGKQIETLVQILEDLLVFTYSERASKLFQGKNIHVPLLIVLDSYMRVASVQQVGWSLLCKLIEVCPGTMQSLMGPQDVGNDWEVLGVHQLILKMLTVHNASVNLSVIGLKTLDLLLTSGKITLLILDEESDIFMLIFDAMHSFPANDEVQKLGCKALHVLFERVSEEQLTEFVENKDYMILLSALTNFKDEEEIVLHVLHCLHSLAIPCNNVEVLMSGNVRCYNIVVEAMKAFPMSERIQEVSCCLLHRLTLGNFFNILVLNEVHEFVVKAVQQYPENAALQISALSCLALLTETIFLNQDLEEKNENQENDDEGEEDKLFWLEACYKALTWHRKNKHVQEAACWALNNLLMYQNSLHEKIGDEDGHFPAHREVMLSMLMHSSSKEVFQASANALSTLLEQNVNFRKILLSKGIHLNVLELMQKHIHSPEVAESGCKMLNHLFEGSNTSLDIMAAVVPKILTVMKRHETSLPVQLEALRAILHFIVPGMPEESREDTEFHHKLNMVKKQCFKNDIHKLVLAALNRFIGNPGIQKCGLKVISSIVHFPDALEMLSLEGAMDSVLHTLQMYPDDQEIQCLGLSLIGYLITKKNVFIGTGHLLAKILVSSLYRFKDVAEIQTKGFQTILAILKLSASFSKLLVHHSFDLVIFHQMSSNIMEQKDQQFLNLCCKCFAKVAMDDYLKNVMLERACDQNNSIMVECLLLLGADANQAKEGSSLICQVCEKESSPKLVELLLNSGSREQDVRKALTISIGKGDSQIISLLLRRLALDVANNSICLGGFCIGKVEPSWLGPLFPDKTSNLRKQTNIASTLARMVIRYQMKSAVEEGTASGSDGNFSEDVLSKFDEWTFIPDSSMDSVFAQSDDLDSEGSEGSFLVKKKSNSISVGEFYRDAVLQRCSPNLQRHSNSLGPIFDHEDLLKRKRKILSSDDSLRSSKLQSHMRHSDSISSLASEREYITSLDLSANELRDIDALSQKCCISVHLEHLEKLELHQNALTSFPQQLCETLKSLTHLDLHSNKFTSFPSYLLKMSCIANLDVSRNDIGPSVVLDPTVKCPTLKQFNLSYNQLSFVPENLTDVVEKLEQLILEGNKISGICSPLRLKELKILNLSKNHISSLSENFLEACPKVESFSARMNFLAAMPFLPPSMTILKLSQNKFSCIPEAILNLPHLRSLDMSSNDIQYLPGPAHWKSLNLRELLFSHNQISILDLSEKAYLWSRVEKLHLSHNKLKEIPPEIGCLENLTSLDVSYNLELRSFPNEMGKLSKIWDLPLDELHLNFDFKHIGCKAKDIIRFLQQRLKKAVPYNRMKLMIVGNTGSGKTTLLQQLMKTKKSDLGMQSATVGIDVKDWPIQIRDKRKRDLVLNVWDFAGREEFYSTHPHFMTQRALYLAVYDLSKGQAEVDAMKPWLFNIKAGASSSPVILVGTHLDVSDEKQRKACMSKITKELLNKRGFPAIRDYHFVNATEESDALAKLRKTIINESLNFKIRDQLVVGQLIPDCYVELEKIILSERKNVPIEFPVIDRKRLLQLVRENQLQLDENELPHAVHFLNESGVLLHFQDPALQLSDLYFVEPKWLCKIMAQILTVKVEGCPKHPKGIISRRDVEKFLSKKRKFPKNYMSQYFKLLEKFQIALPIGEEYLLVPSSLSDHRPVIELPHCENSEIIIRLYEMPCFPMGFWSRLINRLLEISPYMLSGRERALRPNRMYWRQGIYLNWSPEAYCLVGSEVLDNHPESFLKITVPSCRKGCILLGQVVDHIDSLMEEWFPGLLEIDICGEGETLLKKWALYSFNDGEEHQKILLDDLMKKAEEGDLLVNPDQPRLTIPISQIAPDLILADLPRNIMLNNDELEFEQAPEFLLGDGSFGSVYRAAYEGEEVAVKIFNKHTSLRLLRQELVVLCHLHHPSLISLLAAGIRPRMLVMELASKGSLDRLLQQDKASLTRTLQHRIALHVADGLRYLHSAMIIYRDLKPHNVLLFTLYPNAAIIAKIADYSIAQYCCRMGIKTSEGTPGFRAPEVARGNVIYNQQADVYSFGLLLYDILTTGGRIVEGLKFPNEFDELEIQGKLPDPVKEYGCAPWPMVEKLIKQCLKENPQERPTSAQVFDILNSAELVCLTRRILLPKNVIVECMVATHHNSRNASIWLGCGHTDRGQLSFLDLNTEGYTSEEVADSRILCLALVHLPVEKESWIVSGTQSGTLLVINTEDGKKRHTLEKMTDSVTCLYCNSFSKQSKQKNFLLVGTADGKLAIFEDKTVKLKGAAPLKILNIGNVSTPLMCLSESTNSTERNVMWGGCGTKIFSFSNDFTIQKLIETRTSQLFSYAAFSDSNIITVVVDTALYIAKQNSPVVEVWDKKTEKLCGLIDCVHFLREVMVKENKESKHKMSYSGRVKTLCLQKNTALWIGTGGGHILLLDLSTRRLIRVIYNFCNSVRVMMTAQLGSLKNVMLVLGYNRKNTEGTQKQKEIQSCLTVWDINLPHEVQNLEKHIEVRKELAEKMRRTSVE

Molecules are shown by their SMILES. Read-outs that look alike come from different tables or passages of the source.

The target of assay [1] is T1, LRRK2 R1441G/Y1699C/G2019S triple mutant protein (pS1292 autophosphorylation) in inducible HEK293 cells (Homo sapiens, UniProt Q5S007, G2019S/R1441G/Y1699C). To be noted: doxycycline-induced LRRK2 cells.
Assay [2] concerns the target T1, LRRK2 R1441G/Y1699C/G2019S triple mutant protein (pS1292 autophosphorylation) in inducible HEK293 cells. Description: cell-based.

As for `CNc1nc(Nc2ccc(C(=O)N3CCOCC3)cc2OC)ncc1C(F)(F)F` [G1023, [3-methoxy-4-(4-methylamino-5-trifluoromethyl-pyrimidin-2-ylamino)-phenyl]-morpholin-4-yl-methanone], the “reduction of pS1292 / pLRRK2 signal in cells” value in assay [1] is “efficiently reduced pLRRK2 levels in a dose-dependent manner”. Further, the half-inhibitory concentration (IC50) in assay [2] is 1.6 nM; in assay [2] (observed cellular IC50 (pLRRK2 levels), LRRK2 cell-based assay (text, FIG. 7B)), 10 nM.

On to `CCN(CC)CCNC(=O)c1c(C)[nH]c(/C=C2\C(=O)Nc3ccc(F)cc32)c1C` [Sutent, reference compound], for which the “reduction of pS1292 / pLRRK2 signal in cells” value in assay [1] is given as “dose-dependent reduction of pS1292 signal”.

The IC50 is the midpoint of a concentration-inhibition curve.
